Assay results from ChEMBL document CHEMBL4823246, “Fragment-like Chloroquinolineamines Activate the Orphan Nuclear Receptor Nurr1 and Elucidate Activation Mechanisms” (J Med Chem, 2021).
Calls of active or inactive are those of the source. The calls are words filed in the database; no cut-off is given here.

Biological target: T1, Retinoic acid receptor RXR-alpha (Homo sapiens) (UniProt P19793)
T1 sequence (whole entry): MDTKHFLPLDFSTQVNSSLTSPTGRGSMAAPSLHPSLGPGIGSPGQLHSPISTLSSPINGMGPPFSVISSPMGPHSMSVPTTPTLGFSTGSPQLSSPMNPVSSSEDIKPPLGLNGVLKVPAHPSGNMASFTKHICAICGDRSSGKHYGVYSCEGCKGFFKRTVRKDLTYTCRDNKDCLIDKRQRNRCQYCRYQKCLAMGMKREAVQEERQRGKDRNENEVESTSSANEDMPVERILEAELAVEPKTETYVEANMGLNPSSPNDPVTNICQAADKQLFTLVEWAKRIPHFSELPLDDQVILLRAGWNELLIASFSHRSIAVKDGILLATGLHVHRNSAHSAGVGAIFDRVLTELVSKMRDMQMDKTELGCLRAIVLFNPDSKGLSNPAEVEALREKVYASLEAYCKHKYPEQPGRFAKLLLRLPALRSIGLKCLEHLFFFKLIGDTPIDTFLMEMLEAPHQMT
Experiment: Agonist activity at full length human RxRalpha heterodimer response element DR5 expressed in HEK293T cells co-expressing firefly luciferase assessed as firefly luciferase activity up to 100 uM incubated for 12 to 14 hrs by hybrid reporter gene assay
Format: cell-based
Details: filed as agonist, dose microM <=100, time 12-14 hrs
Method in brief: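 Full-length receptor assay in HEK293T cells transiently cotransfected with pFR-Luc-DR5 reporter, human Nurr1 (pcDNA3.1-hNurr1-NE), human RXR (pSG5-hRXR) and SV40-renilla. Five hours post-transfection, compound was added in Opti-MEM with 0.1% DMSO for 12−14 h, then a dual-luciferase read-out. Firefly/renilla ×1000 gave RLU, expressed as fold over DMSO control. Duplicates, ≥3 independent experiments.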

## Nc1cccc2c(Cl)cccc12
  Activity: Active
